{"source": "paper PMC6007947", "about": "“Sensitivity of pretargeted immunoPET using ^68Ga-peptide to detect colonic carcinoma liver metastases in a murine xenograft model: Comparison with ^18FDG PET-CT” (Oncotarget, 2018)", "tested_on": "hepatic LS174T metastases", "parameters": "species or system nude mice", "conditions": "mouse, in vivo"}
{"compound": "OC[C@H]1OC(O)[C@H](F)[C@@H](O)[C@@H]1O", "note": "(stereo partly drawn) [^18FDG-PET, Fluorine-18 fluorodeoxyglucose]", "values": [{"measurement": "Biodistribution uptake, Blood", "value": "1.21 ± 0,20 %ID"}, {"measurement": "Biodistribution uptake, Bone", "value": "3.85 ± 0.40", "unit": "%ID"}, {"measurement": "Biodistribution uptake, Heart", "value": "61.57 ± 10.53", "unit": "%ID"}, {"measurement": "Biodistribution uptake, Intestine", "value": "4.99 ± 0.52", "unit": "%ID"}, {"measurement": "Biodistribution uptake, Kidney", "value": "6.57 ± 0.77", "unit": "%ID"}, {"measurement": "Biodistribution uptake, Liver", "value": "2.26 ± 0.33", "unit": "%ID"}, {"measurement": "Biodistribution uptake, Lung", "value": "5.77 ± 0.50", "unit": "%ID"}, {"measurement": "Biodistribution uptake, Muscle", "value": "5.93 ± 1.78", "unit": "%ID"}, {"measurement": "Biodistribution uptake, Skin", "value": "3.08 ± 0.17", "unit": "%ID"}, {"measurement": "Biodistribution uptake, Spleen", "value": "4.52 ± 0.37", "unit": "%ID"}, {"measurement": "Biodistribution uptake, Stomach", "value": "3.43 ± 0.45", "unit": "%ID"}, {"measurement": "Biodistribution uptake, Tumor", "setting": "iv", "value": "7.61 ± 1.53 (n=10) %ID"}]}
